From US20100137440A1, “LYSINE RIBOSWITCHES, STRUCTURE-BASED COMPOUND DESIGN WITH LYSINE RIBOSWITCHES, AND METHODS AND COMPOSITIONS FOR USE OF AND WITH LYSINE RIBOSWITCHES” (Yale University, priority 2006, published 2010)

Assays:
[1] = tested on: 179-nucleotide receptor domain (179 lysC) of the lysC lysine riboswitch; assay: In-line probing assay, ligand binding to 179 lysC; parameters: species or system B. subtilis; conditions: in vitro
[2] = tested on: lysC riboswitch with the M1 or M2 mutation upstream of β-galactosidase reporter; assay: Reporter gene (β-galactosidase) expression assay, M1 or M2 riboswitch constructs; type: cell-based, B. subtilis; conditions: high compound concentrations (lysine as high as 5 mM)

Row | SMILES | binding to 179 lysC / lysine aptamer (in words) [1] | β-galactosidase expression from M1 or M2 constructs [2]
1 | CC(=O)NCCCC[C@H](N)C(=O)O | no binding is observed | 
2 | NCCCC[C@H](N)C(=O)O [lysine, L-lysine] |  | derepress gene expression
